Here are results for one compound from US20240294509A1, “PYRIDAZINONE COMPOUND AS PARP7 INHIBITOR” (Euregen Biopharma Co., Ltd., priority 2021, published 2024).

Protein sequences, listed by entry. Tags and fused reporters are not part of them.
UniProt P09874, whole entry: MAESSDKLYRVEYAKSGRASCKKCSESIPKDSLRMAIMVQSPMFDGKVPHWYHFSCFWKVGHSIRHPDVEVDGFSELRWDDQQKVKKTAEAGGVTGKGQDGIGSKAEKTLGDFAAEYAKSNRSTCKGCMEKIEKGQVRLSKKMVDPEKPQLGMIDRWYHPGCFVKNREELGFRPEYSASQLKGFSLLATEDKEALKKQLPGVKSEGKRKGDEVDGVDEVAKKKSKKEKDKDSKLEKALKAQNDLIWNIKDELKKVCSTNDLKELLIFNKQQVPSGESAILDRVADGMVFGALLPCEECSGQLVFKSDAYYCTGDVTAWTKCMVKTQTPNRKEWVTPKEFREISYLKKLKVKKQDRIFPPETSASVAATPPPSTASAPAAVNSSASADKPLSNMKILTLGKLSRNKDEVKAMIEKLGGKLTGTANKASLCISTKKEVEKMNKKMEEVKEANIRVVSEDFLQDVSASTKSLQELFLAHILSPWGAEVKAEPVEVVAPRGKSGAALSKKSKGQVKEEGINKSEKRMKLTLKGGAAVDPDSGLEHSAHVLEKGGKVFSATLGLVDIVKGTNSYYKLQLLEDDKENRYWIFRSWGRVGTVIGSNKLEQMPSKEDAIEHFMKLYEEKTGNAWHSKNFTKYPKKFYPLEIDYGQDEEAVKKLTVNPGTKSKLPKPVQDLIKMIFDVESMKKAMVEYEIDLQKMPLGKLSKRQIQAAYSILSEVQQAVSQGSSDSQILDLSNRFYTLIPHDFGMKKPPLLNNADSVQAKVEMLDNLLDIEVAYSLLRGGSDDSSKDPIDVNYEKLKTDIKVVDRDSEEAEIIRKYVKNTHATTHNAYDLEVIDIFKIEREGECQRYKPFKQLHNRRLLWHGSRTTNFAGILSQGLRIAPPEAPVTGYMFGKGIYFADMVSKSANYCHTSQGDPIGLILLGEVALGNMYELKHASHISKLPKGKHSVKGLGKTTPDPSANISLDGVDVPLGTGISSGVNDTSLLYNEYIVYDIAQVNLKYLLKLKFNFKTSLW

As usually defined, the pIC50 is the IC50 on a negative log10 scale, so that one unit is a factor of ten.

The experiment deals with PARP1 (Homo sapiens (Human), UniProt P09874). The settings on record: tested form: formate.

pIC50: −log10 of the molar value.

For `O=C(CC[C@@H]1C[C@H](O)CN1c1cc(C(F)(F)F)c(=O)[nH]n1)N1CCN(c2ncc(C(F)(F)F)cn2)CC1`, the pIC50 is 7.90.
